Values quoted from earlier work as cited in publication PMC8394219, “In Vitro Nephrotoxicity Studies of Established and Experimental Platinum-Based Compounds” (Biomedicines, 2021).

How the values were obtained:
[1] = system: organic cation transporter 2 (OCT2); parameters: method as in PMID 17582384, PMID 21144842; conditions: cited from earlier work
[2] = system: MATE2-K; conditions: cited from earlier work

## O=C1[O][Pt]2([NH][C@@H]3CCCC[C@H]3[NH]2)[O]C1=O [Oxaliplatin]
[1]
  uptake via / affinity to OCT2: uptake via OCT2 has also been observed
[2]
  affinity for MATE2-K: substrate for both MATE1 and MATE2-K
